Results as given in patent publication US8959984B2, “Proteome-wide quantification of small molecule binding to cellular target proteins” (priority 2007, dated 2015).

Amino acid sequences for entries named in this document (tags omitted). A change or cut given only in a name is not applied to a line headed by its entry.
UniProt P06493, whole entry: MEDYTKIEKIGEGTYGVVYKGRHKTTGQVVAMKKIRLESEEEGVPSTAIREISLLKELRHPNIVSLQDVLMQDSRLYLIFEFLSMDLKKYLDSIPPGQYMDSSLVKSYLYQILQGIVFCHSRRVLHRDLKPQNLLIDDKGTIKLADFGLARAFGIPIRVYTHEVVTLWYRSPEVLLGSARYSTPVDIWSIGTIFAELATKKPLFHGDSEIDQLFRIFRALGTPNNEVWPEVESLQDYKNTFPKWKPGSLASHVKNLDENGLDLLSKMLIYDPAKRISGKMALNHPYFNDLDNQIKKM
UniProt P49840: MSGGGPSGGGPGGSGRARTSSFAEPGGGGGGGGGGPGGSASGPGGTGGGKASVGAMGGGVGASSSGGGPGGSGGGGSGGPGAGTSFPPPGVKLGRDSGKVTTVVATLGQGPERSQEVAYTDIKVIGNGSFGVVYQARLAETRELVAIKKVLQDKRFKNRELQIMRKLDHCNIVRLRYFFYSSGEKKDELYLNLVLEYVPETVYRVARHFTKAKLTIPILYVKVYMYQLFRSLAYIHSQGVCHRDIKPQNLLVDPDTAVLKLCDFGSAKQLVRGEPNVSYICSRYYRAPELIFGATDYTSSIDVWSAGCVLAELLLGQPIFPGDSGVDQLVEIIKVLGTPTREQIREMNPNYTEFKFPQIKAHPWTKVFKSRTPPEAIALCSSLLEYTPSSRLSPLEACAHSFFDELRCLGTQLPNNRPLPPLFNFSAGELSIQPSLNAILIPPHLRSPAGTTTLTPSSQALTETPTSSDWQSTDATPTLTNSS
UniProt O95835: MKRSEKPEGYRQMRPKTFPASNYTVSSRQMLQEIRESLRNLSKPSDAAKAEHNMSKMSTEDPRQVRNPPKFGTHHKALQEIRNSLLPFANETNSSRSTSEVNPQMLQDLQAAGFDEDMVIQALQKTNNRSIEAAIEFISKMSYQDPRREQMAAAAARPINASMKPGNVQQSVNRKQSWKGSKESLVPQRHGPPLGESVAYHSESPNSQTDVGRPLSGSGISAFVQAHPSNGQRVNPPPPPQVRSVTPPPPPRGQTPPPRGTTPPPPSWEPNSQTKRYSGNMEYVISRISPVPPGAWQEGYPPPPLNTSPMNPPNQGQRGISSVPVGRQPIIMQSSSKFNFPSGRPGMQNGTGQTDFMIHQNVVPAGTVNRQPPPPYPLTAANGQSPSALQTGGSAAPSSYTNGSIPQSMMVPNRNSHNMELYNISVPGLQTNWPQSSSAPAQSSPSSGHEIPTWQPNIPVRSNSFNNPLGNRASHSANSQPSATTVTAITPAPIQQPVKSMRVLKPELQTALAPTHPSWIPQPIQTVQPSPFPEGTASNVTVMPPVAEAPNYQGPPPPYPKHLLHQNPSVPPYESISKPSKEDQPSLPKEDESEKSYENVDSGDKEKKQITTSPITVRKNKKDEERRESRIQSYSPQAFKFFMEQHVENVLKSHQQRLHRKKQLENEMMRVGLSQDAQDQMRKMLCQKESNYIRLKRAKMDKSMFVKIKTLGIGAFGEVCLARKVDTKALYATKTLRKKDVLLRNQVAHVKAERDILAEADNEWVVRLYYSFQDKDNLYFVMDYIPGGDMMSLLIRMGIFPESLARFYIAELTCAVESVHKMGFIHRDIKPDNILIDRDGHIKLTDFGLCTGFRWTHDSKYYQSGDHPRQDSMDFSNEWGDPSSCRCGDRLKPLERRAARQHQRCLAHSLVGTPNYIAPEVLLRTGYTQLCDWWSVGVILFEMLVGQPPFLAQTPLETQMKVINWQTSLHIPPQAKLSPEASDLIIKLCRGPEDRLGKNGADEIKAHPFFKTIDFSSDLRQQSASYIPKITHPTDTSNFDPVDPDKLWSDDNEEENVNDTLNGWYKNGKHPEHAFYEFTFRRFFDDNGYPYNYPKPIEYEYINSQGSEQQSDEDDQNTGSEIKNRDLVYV
UniProt P29597: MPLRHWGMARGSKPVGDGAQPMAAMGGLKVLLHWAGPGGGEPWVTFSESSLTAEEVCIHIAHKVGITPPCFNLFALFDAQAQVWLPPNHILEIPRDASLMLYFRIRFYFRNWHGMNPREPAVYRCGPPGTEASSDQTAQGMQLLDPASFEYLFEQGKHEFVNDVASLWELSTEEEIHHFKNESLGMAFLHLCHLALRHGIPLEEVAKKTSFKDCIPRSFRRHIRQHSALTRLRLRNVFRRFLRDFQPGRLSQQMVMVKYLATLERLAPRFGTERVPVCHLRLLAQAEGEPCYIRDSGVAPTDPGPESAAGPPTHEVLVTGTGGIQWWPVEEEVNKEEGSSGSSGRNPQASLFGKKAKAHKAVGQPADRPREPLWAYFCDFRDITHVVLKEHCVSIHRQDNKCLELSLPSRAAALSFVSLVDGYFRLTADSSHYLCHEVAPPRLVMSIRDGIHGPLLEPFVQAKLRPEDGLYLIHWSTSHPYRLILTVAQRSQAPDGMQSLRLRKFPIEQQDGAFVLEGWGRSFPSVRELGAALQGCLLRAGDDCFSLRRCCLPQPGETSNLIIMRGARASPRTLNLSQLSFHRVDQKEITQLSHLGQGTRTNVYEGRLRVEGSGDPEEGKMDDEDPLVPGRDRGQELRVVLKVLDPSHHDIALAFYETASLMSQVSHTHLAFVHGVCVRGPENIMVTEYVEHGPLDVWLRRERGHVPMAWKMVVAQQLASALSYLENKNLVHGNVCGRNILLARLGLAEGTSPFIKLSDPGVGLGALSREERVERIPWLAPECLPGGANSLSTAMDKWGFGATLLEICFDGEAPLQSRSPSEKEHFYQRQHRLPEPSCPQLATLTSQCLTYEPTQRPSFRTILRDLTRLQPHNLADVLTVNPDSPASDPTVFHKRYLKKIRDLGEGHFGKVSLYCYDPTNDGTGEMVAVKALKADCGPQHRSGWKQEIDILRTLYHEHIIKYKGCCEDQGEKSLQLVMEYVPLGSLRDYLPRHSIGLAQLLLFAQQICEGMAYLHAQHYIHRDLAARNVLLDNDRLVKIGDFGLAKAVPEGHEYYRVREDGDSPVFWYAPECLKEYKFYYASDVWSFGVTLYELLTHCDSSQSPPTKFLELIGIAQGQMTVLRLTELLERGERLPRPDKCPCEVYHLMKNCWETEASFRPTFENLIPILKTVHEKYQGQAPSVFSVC
UniProt Q9Y6I9: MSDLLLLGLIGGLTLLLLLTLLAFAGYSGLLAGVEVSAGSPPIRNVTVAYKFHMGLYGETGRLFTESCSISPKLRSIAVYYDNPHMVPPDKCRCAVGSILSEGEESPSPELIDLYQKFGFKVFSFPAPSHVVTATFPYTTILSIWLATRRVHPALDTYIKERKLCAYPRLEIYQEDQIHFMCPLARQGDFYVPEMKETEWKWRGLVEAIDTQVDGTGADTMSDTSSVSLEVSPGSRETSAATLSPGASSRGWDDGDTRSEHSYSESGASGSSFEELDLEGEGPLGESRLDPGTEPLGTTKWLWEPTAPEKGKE
UniProt O60331: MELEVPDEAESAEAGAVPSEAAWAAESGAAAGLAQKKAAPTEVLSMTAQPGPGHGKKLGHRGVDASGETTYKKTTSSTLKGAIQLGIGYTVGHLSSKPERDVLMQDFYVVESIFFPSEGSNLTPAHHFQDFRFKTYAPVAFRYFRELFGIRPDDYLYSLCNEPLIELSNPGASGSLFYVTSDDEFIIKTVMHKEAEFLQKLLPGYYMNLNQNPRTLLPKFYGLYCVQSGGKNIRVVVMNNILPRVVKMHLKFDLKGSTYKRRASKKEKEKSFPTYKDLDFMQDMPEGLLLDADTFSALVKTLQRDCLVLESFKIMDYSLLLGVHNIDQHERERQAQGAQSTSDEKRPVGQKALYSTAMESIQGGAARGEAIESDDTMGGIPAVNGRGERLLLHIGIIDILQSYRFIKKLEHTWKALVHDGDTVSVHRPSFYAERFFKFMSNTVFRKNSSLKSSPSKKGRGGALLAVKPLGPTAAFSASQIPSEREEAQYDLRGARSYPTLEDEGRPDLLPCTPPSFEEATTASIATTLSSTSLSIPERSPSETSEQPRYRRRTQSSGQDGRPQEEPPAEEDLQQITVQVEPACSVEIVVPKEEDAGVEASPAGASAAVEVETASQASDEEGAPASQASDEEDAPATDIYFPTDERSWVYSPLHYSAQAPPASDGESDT
UniProt P23458: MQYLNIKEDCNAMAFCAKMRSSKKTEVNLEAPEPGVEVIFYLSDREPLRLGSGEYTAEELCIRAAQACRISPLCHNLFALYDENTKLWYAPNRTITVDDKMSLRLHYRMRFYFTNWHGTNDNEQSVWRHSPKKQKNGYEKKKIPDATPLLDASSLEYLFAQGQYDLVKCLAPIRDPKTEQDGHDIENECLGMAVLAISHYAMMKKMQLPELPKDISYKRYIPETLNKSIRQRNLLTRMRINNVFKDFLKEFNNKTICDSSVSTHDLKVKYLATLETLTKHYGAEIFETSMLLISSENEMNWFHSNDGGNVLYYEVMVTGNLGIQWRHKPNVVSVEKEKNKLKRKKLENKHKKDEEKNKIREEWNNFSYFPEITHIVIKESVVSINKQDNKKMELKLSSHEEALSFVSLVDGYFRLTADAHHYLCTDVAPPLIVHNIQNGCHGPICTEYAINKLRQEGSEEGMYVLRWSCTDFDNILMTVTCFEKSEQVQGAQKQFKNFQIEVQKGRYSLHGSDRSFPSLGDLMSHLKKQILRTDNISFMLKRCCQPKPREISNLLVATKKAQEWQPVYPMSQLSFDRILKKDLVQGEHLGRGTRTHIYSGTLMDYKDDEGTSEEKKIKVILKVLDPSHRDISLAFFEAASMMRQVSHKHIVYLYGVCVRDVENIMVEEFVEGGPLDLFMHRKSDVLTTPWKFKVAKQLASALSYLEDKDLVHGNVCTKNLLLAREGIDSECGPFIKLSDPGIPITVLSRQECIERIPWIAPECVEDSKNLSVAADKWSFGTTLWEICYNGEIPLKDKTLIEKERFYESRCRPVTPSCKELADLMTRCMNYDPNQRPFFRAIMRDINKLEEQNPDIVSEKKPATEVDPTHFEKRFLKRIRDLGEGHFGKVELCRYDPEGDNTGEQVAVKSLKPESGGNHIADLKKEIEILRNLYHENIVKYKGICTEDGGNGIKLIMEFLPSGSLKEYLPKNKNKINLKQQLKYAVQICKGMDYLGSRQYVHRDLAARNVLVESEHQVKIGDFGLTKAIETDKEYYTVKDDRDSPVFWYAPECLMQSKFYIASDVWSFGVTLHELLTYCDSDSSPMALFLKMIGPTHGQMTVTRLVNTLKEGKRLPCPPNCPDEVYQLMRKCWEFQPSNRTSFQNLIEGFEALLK
UniProt P42684, whole entry: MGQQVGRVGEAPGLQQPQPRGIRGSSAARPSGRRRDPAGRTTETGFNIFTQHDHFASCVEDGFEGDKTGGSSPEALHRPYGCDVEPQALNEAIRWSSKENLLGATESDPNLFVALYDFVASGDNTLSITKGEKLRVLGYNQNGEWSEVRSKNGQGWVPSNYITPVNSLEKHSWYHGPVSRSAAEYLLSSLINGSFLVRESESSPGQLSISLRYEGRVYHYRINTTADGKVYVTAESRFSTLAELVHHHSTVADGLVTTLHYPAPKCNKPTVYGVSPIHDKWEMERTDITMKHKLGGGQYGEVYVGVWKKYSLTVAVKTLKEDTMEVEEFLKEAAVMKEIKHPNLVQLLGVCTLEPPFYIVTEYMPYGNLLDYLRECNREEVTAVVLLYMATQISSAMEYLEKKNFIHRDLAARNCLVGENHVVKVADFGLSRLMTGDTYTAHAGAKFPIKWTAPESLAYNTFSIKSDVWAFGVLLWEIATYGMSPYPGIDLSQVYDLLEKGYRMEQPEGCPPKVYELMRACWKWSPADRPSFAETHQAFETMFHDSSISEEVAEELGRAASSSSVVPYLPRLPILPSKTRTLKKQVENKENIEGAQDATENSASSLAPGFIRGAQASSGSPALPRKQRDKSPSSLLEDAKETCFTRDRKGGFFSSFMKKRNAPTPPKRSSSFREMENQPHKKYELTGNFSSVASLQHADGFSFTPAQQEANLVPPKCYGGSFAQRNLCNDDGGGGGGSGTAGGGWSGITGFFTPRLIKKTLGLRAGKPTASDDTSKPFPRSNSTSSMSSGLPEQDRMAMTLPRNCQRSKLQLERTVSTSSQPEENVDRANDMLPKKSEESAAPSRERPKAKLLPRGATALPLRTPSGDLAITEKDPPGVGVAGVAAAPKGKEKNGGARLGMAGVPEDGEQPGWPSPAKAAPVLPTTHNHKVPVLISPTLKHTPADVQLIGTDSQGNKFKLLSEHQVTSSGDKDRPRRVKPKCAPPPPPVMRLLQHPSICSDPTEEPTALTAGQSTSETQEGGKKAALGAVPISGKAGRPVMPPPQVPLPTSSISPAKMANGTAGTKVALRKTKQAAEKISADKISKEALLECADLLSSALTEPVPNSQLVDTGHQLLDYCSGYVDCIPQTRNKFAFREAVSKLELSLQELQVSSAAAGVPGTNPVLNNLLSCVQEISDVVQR

Key:
Test in all cases: Ki determination for immobilized VI16742: two consecutive incubations, control beads, ligand concentration and incubation time controls (Tables 7, 8)
Type in all cases: binding
[1] = biological target: cellular target proteins in HeLa cell lysate (Homo sapiens, UniProt P06493); conditions: Ki (VI16742), CDC2 IPI00026689
[2] = biological target: cellular target proteins in HeLa cell lysate (Homo sapiens, UniProt P49840); conditions: Ki (VI16742), GSK3A IPI00292228
[3] = biological target: cellular target proteins in HeLa cell lysate (Homo sapiens, UniProt O95835)
[4] = biological target: cellular target proteins in HeLa cell lysate (Homo sapiens, UniProt O75676); conditions: Ki (VI16742), MSK2 (RPS6KA4) IPI00022536
[5] = biological target: cellular target proteins in HeLa cell lysate (Homo sapiens, UniProt Q9Y3C4); conditions: Ki (VI16742), TPRKB IPI00301432
[6] = biological target: cellular target proteins in HeLa cell lysate (Homo sapiens, UniProt P29597); conditions: Ki (VI16742), TYK2 IPI00022353
[7] = biological target: cellular target proteins in HeLa cell lysate (Homo sapiens, UniProt Q9Y6I9); conditions: Ki (VI16742), TEX264 IPI00796519
[8] = biological target: cellular target proteins in HeLa cell lysate (Homo sapiens, UniProt O60331); conditions: Ki (VI16742), PIP5K1C IPI00029009
[9] = biological target: T1, cellular target proteins in HeLa cell lysate (Homo sapiens, UniProt Q9UEE5)
T1 sequence (Q9UEE5 1-414): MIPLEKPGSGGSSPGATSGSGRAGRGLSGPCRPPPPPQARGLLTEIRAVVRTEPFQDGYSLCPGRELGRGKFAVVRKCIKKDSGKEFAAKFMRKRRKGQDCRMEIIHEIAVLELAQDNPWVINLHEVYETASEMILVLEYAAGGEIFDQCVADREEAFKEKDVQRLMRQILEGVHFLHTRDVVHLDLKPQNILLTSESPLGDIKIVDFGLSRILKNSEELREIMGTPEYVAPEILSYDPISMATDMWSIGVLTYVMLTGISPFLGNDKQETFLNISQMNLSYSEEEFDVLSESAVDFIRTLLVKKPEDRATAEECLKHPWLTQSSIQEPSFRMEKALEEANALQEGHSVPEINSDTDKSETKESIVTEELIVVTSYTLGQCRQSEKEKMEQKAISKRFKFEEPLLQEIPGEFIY

[10] = biological target: cellular target proteins in HeLa cell lysate (Homo sapiens, UniProt P23458); conditions: Ki (VI16742), JAK1 IPI00784013
[11] = biological target: cellular target proteins in HeLa cell lysate (Homo sapiens, UniProt P42684); conditions: Ki (VI16742), ARG (ABL2) IPI00329488
[12] = biological target: cellular target proteins in HeLa cell lysate (Homo sapiens, UniProt O60563); conditions: Ki (VI16742), CCNT1 IPI00030247

Compound: CC(C)n1c(=O)ccc2cnc(Nc3ccc(OCCN)cc3)nc21 [V16742]
- Ki [1]: 28 µM
- Ki [2]: 12.5 µM
- Ki [3]: 16.6 µM
- Ki [4]: 14 µM
- Ki [5]: 18.9 µM
- Ki [6]: 5.77 µM
- Ki [7]: 52.9 µM
- Ki [8]: 60.4 µM
- Ki [9]: 11.8 µM
- Ki [10]: 5.35 µM
- Ki [11]: 64.5 µM
- Ki [12]: 9.22 µM
